Assay [1] addresses Cytochrome P450 3A7 (Homo sapiens) (UniProt P24462). As to the kind of experiment: Cytochrome P450 family 3 subfamily A member 7 (CYP3A7) small molecule antagonists: luciferase qHTS assay (AID 1963596; also: nearly all actives have a fitted effect of over 40% in size; also: potency is read from the fitted curve at half-maximal effect). The following applies: P450-Glo CYP3A7 enzyme luminescence, 1 h; series mostly up to 57.4 µM. An excerpt:
National Center for Advancing Translational Sciences [NCATS] Assay Overview: Cytochrome P450 (CYP) enzymes are membrane-bound hemeproteins that play a key role in metabolism of drugs and xenobiotics. The CYP3A subfamily is the most abundant, representing 30% of the total adult hepatic CYP content, whereas CYP3A7 is found predominantly in human fetal liver and accounts up to 50% of the total fetal hepatic CYP content. Testing the effect of chemicals on CYP isozymes is useful to minimize the adverse drug reactions and toxicities in the drug development process. Chemicals were tested for their effect on CYP enzyme activities by using P450-Glo (TM) screening systems (Promega Corporation, Madison, WI). […] The luciferin products formed are detected with a luciferin detection reagent, and the amount of light produced is proportional to CYP activity. […]
Assay Protocol Summary: Two ul of enzyme-substrate mix was dispensed into medium binding white/solid 1536-well plates (Greiner Bio-One North America Inc., Monroe, NC) using a Flying Reagent Dispenser (FRD, Aurora Discovery, San Diego, CA). […] The reaction was stopped by adding 4 ul of detection reagent using an FRD and after 20 min incubation at room temperature the luminescence signal was measured using a ViewLux plate reader (Perkin Elmer, Shelton, CT). Data were expressed as relative luminescence units.
Background: Quantitative high-throughput screening tests each substance at several concentrations.

Sequences of proteins named here, by UniProt entry; tags and fusion partners are left off.
UniProt P24462, whole entry: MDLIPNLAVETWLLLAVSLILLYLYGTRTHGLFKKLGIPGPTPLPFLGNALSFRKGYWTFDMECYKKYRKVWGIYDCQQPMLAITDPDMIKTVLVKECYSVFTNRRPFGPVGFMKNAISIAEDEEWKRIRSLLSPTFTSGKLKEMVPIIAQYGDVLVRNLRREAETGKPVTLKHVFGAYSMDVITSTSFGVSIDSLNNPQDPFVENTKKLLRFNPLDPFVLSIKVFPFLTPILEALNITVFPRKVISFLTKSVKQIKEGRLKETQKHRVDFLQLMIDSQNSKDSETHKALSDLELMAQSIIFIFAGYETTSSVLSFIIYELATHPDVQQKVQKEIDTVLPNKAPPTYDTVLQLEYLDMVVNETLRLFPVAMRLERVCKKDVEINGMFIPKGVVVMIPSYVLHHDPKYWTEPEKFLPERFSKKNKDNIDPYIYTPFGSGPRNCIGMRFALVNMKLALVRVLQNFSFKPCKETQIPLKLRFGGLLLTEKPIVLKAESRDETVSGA

The nature of assay [2]: Viability qHTS for spleen associated tyrosine kinase inhibitor (SYKi) naive MV4-11 cells (AID 1963823). Also: nearly all actives have a fitted effect of over 40% in size. The conditions noted are these: MV4-11 AML viability, CellTiter-Glo luminescence, 72 h; at 45 µM (top of the series). A digest of the protocol:
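SYK inhibitor-naive MV4-11 cells, 500 per well, exposed to compounds for 72 hr at 37 C, 5% CO2. Viability read as CellTiter-Glo luminescence after 10 min at room temperature.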

Assay [3] in a line: Viability qHTS for spleen associated tyrosine kinase inhibitor (SYKi) drug resistant MV4-11 cells (AID 1963824). Also: nearly all actives have a fitted effect of over 35% in size. The conditions noted are these: SYKi-resistant MV4-11 viability, CellTiter-Glo, 72 h; at 45 µM (top of the series). From the text:
Department of Medicine, Hematology/Oncology
University Hospital Frankfurt, Germany.
Trials have shown promising clinical activity of the selective SYK inhibitor entospletinib in patients with high expressing HOXA9/MEIS1 acute leukemias. As the development of resistance mechanisms is a common problem in the use of targeted drugs, we performed a chemical library screen to identify drug sensitivities in SYK inhibitor resistant AML cells. […] Glucocorticoids are potent immunosuppressants which work in part by inhibiting the transcription of cytokine genes.
Described herein is a viability screen to look for activity in the SYK inhibitor drug resistant cell line against four NCATS compound libraries (MIPE 5.0, NPC, NPACT, and Kinase) totaling 11372 compounds. Active hits were reacquired for confirmation and further secondary assay testing.
SEQUENCE No. (e.g., 1, 2, 3, etc.); […] (e.g., Cells, Incubation, Reagent, etc.); VALUE; DESCRIPTION.
1; Media; 2uL; white, solid-bottom Corning assay plate.
2; Compounds; 23nL; Echo acoustic dispenser.
3; Cell; 5uL; 500 cells per well.
4: Incubation; 72hr; 37 C, 5% CO2, 95% humidity.
5; Reagent; 3uL; CellTiter-Glo reagent (Promega).
6; Incubation; 10min; room temperature.
7; Detection; Luminescence; ViewLux plate reader (PerkinElmer).
NOTES (numbers refer to Sequence numbers above
1. Quantitative high-throughput screening (qHTS) of small molecule compounds was conducted on drug resistant SYKi MV4-11 cell line.
2. Twenty-three nanoliter of small molecule compounds were added to each assay plates using the Echo acoustic dispenser (Beckman Coulter).
3. Cells were seeded into the assay plates at a final density of 500 cells in 5uL of media per well using the Multidrop Combi dispenser.
4. Plates were covered with stainless steel gasketed lids and incubated for 72 hours at standard cell culture conditions.
5. Viability was assessed by adding 3uL of CellTiter-Glo detection reagent (Promega).
6. Plates were covered with gasket lids and incubated for 10 minutes at room temperature.
7. Luminescence was measured on a ViewLux plate reader (PerkinElmer).

A short description of assay [4]: Cellular viability qHTS for adrenocortical cancer (ACC) cell line SW-13 (AID 1963989).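 Also: cells grown in serum-free medium with ITS supplement; % is scaled to controls: 0 for no effect and ±100 for the full control effect; nearly all actives have a fitted effect of over 65% in size.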 The following applies: SW-13 ACC cells viability, CellTiter-Glo, 48 h; hits give low values. The essentials:
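Luminescent ATP read-out (CellTiter-Glo, 20 min at room temperature) measured metabolically competent SW-13 cells after 48 h compound treatment. Final concentrations spanned up to 46 uM; bortezomib served as positive control.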

Assay [5] is described as follows: Cellular viability qHTS for adrenocortical cancer (ACC) cell line NCI-H295R (AID 1963990).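 Also: 0% = DMSO only wells and -100% = full killing with cytotoxic reference compound; nearly all actives have a fitted effect of over 60% in size.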 The conditions noted are these: CellTiter-Glo ATP luminescence, 48 h; at 46.1 µM (top of the series). An excerpt: PI: Naris Nilubol, MD Surgical Oncology Program, National Cancer Institute (NCI) National Institute of Health (NIH), Bethesda, Maryland Adrenocortical cancer (ACC) is a rare malignancy with poor survival outcomes and few treatment options. Currently, mitotane is the only FDA-approved therapy for ACC. Although adjuvant radiation therapy is rarely utilized, it has the potential to improve survival in select cases. Through a quantitative high-throughput drug screen (qHTS), we identified auranofin (AF), a thioredoxin reductase (TXNRD) inhibitor, as a promising candidate drug. This study aims to evaluate whether AF can enhance the efficacy of radiation therapy in the treatment of ACC. Two human ACC cell lines, SW-13 and NCI-H295R, were screened using the National Center for Advancing Translational Sciences (NCATS) Pharmaceutical Collection (NPC) and the Mechanism Interrogation PlatE (MIPE) library (~4,991 compounds). CellTiter-Glo (Cat # G7570, Promega, Madison, WI) was utilized to measure cell viability. Described herein are the results of the corresponding viability assay.
PROTOCOL TABLE (as described by Inglese J, Shamu CE and Guy RK. 2007) SEQUENCE No. (e.g., 1, 2, 3, etc.); […] (e.g., Cells, Incubation, Reagent, etc.); VALUE; DESCRIPTION. 1; Cells; 5 uL; white, solid-bottom, 1536-well tissue-culture treated plates. 2; Time; overnight culture at 37C with 5% CO2. 3; Compounds and control; 23 nL; Kalypsis pin tool (Wako USA) equipped with a 1536-well pin head to transfer to the assay plates. 4; Time; 48 hours; 37C with 5% CO2. 5; Reagent; 4 uL; CellTiter-Glo luminescent substrate mix. 6; Time; 20 min at room temperature. 7; Detection; Luminescence; ViewLux plate reader NOTES (numbers refer to Sequence numbers above) 1. NCI-H295R cells were harvested from a T175 flask and resuspended in ITS-supplemented DMEM serum-free medium at a concentration of 300 000 cells/mL. […] After incubation, luminescence was measured using a ViewLux plate reader (PerkinElmer, Waltham, MA, USA) with a clear filter was used to measure the number of metabolically competent cells. […]

Assay [6] is described as follows: Quantitative highthroughput screen to assess conditional lethalithy of P12 Ichikawa cells grown in Human Plasma-Like Medium with dialyzed fetal bovine serum (HPLM+ds) (AID 1963879). Also: nearly all actives have a fitted effect of over 35% in size. The conditions noted are these: ATP luminescence, 48 h; at 45.8 µM (top of the series). From the text: (§1) Assay Provider: Jason Cantor Ph.D.
(§2) Department of Biochemistry
(§3) University of Wisconsin-Madison, Madison, WI, USA
(§4) Chemical screening studies have identified drug sensitivities across hundreds of cancer cell lines but most putative therapeutics fail to translate. Discovery and development of drug candidates in models that more accurately reflect nutrient levels in human blood is a major challenge. Here we performed high-throughput screens in conventional versus Human Plasma-Like Medium (HPLM) to identify compounds that were "missed" when screening using the artificial culture condition. Sets of conditional anticancer compounds spanned phases of clinical development and included non-oncology drugs were assessed. […] We also traced conditional phenotypes for several chemotherapeutics to availability of HPLM-specific metabolites and confirmed others for compounds whose reported targets are encoded by nonessential genes. Our findings establish generalizable strategies for exploiting conditional lethality in HPLM to reveal therapeutic candidates and mechanisms of action in cancer cells. […]
(§5) 6; Detection; Luminescence, Viewlux PerkinElmer. […]
(§6) 6. The luminescence signal was measured using a ViewLux (PerkinElmer) multiplate reader with a 2 second exposure time per plate. […]

The nature of assay [7]: Quantitative highthroughput screen to assess conditional lethalithy of P12 Ichikawa cells grown in RPMI1640 with dialyzed fetal bovine serum (RPMI+ds) (AID 1963880).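 Also: 100% = DMSO wells and 0% = empty wells on each plate; nearly all actives have a fitted effect of over 35% in size.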 The conditions noted are these: ATP luminescence, 48 h; at 45.8 µM (top of the series).
Source text: as §1, §2, §3, §4, §5, §6

Assay [8] can be described thus: Quantitative highthroughput screen to assess conditional lethalithy of P12 Ichikawa cells grown in RPMI1640 with untreated serum (RPMI+s) (AID 1963881).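 Also: 100% = DMSO wells and 0% = empty wells without cells; nearly all actives have a fitted effect of over 35% in size.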 The following applies: ATP luminescence, 48 h; at 45.8 µM (top of the series).
Source text: as §1, §2, §3, §4, §5, §6

Assay [9] can be described thus: Quantitative highthroughput screen to assess conditional lethalithy of SEM cells grown in RPMI1640 with unreated serum (RPMI+s) (AID 1963883). The following applies: SEM B-ALL cells, CellTiter-Glo viability, 48 h; at 45.8 µM (top of the series).
Source text: as §1, §2, §3, §4, §5, §6
Background: Cellular ATP, detected with luciferase, serves as a proxy for viable cell number.

The nature of assay [10]: Quantitative highthroughput screen to assess conditional lethalithy of SEM cells grown in RPMI1640 with dialyzed fetal bovine serum (RPMI+ds) (AID 1963884). The conditions noted are these: SEM B-ALL cells, RPMI+dialyzed FBS, CellTiter-Glo viability, 48 h; at 45.8 µM (top of the series).
Source text: as §1, §2, §3, §4, §5, §6

From PubChem BioAssay (NCATS) come the findings set out here.

Each structure is given as a SMILES string. Only a part is listed here, and it is no random draw. Records with an inconclusive call do not appear. Active and inactive are the calls of the source. Calls follow the shape of the dose curve; as a rule, active = well fitted curve in the direction sought with a large enough effect; inconclusive = small, poorly fitted or top-dose-only effect, or another doubt; inactive = no such curve, though single readings can be large; an effect the other way counts as inactive or inconclusive.

`CCOC(=O)N1CCC(=O)CC1`: the Potency result in [1] was “inactive”. The viability (% of control) in assay [2] is inactive: 98.9%. For the same molecule, the viability, % of control in [3] was inactive: 89.5%. Further, the activity (max response) in assay [4] is inactive: 7.83%. In [5], the activity change, negative = viability loss was inactive: -13.6%.
With `CC(=O)N1CCc2ccc(N(C(=O)/C=C/c3cccc(C#N)c3)C3CCN(CCC4CCCC4)CC3)cc21`, the Potency in assay [1] was active: 12.6 µM. In addition, in assay [3], the viability, % of control was inactive: 93%.
As to `CCOC(=O)C(=O)CBr`, the viability (% of control) in assay [2] was inactive: 91.8%. Besides, the viability, % of control in [3] is inactive: 87.7%. The viability (commonly the share of living cells, or the viability signal relative to a control) in assay [6] was inactive: 98%; in assay [7], inactive: 90%; in [8], inactive: 87.9%; in assay [9] it was inactive: 87%; in assay [10] it was inactive: 79.1%. Moreover, in assay [4], the activity (max response) was inactive: -1.13%. The activity change, negative = viability loss in [5] was inactive: -4.45%.
For `CCC(=O)N(c1ccccc1)C1CCNCC1`, the viability (% of control) in assay [2] was inactive: 97.8%. Moreover, the activity (max response) in assay [4] is inactive: -3.96%. Besides, the activity change, negative = viability loss in assay [5] was inactive: -8.24%.
